# Measured affinities in a library of Ab-95 light chain variants

Source: Engelhart et al. 2022 (doi:10.1038/s41597-022-01779-4), MIT Lincoln Laboratory and A-Alpha Bio; data file from the FLAb repository.

Target peptide (SARS-CoV-2 spike, HR2 region): PDVDLGDISGINAS

Each scFv is VH, the linker GGGGSGGGGSGGGGS, VL, as in the parent Ab-95, and differs from it in the CDRs of the light chain only.
VH: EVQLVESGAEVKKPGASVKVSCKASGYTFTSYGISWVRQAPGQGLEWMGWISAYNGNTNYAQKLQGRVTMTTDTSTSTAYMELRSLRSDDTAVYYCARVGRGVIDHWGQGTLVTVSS
VL: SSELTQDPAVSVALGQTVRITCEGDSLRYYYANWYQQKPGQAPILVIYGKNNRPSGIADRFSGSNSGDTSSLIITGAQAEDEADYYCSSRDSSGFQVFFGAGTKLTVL

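The starting antibody came from a phage panning campaign against this peptide. In library AAYL52, one, two or three CDR residues were substituted; doubles and triples were drawn at random. The assay is AlphaSeq: two haploid yeast populations carry antibody and antigen on their surface. The frequency of each diploid, read from paired DNA barcodes, reflects how well the two displayed proteins bind. Each replicate has its own calibration line, from reference interactions of the BCL2 family. The assay was run in three technical replicates.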

Sequences are complete VL domains.
Values are log10 of the apparent Kd in nM; lower means stronger binding.
Where no diploid with the target was found in that replicate, the entry reads "ND": below detection, most likely a poor binder, though not proof of it.
In this assay the parent's reference entry averaged 2.31; its copy inside this library read 2.25.
As a blank, each scFv also met three strains without target: over library AAYL52, 28% of these pairings were detected, typically at 3.91 and seldom below 2.90. The control count says in how many pairings with the empty strains this scFv gave a signal, with their mean in brackets.

VL | log10 Kd (nM) by replicate | empty controls
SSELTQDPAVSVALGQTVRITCEGDSLRYYYANWYQQKPGQAPILVIYGKINRPSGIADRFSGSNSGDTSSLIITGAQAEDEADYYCSSRDSCGMQVFFGAGTKLTVL | ND / 3.80 / ND | 4 of 9 (4.49)
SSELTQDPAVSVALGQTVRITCEGKSLRYYYANWYQQKPGQAPILVIYGKNNRPHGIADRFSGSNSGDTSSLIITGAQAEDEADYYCSSRDSSDFQVFFGAGTKLTVL | 2.63 / 2.85 / 2.83 | 1 of 9 (2.58)
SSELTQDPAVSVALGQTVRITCEGDSLRYYYADWYQQKPGQAPILVIYGKNNRPSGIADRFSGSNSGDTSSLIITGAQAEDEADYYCSSRDNSGFCVFFGAGTKLTVL | 2.11 / 2.42 / 1.72 | 5 of 9 (4.02)
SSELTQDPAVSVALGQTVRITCEGDSLRQYYAEWYQQKPGQAPILVIYGKNNRPSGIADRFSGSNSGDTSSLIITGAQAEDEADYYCSSLDSSGFQVFFGAGTKLTVL | ND / ND / 3.51 | 0 of 9
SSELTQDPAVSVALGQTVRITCEGDALRYYYANWYQQKPGQAPILVIYAKNNRPSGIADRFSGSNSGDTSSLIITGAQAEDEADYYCSSRDSSGFQVFFGAGTKLTVL | 3.50 / ND / 3.91 | 0 of 9
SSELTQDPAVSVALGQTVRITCEGDSLRYYYQNWYQQKPGQAPILVIYGKNNRPSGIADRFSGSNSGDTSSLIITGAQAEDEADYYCSSQDSSGFQGFFGAGTKLTVL | 4.40 / 4.05 / ND | 0 of 9
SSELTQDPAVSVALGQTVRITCEGDSLRYYYANWYQQKPGQAPILVIYGKNNRPSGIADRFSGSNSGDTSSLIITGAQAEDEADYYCSSRDSSNFQVFFGAGTKLTVL | 2.05 / 1.69 / 1.45 | 0 of 9
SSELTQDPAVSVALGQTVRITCKWDSLRYYYANWYQQKPGQAPILVIYGKNNRPSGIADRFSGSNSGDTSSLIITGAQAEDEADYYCSSRYSSGFQVFFGAGTKLTVL | 3.50 / ND / 3.11 | 3 of 9 (3.30)
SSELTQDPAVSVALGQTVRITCEGDSLRYYYANWYQQKPGQAPILVIYGKNFRPSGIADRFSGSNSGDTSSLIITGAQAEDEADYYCSSRADSGFQVFFGAGTKLTVL | 3.35 / 2.68 / 2.85 | 0 of 9
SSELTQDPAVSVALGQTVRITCEGDSLRYYYFNWYQQKPGQAPILVIYGKNNRPSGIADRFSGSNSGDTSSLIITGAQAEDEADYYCSSRSSSGFQIFFGAGTKLTVL | ND / 4.42 / ND | 0 of 9
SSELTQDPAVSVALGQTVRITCEGDSLRYYYANWYQQKPGQAPILVIYPKNNNPSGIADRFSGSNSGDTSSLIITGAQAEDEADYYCSSRDSSGAQVFFGAGTKLTVL | ND / ND / 3.32 | 1 of 9 (3.76)
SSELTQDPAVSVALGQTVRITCEGDSVKYYYANWYQQKPGQAPILVIYGKNNRPSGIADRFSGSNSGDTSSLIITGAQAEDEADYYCSSRDSSGFAVFFGAGTKLTVL | 3.60 / ND / ND | 4 of 9 (4.41)
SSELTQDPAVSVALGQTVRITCEGASLRYYYALWYQQKPGQAPILVIYGKNNRESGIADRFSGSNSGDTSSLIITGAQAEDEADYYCSSRDSSGFQVFFGAGTKLTVL | 4.44 / 3.13 / ND | 1 of 9 (4.43)
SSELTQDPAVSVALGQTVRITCEGDSLRYYYYNWYQQKPGQAPILVIYGKNNRPSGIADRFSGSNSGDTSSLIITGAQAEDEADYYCSSRDQSGWQVFFGAGTKLTVL | ND / 4.05 / ND | 3 of 9 (3.82)
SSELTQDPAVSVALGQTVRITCEGDSLRNYYANWYQQKPGQAPILVIYGKNNRPSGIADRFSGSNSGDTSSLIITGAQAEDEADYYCSSRDSSGFVVPFGAGTKLTVL | 2.16 / 2.06 / 1.70 | 4 of 9 (4.20)
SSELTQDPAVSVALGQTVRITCEGDSERYYYANWYQQKPGQAPILVIYGKNCRPSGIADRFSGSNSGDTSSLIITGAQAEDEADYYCSSRDSPGFQVFFGAGTKLTVL | ND / ND / ND | 1 of 9 (2.95)
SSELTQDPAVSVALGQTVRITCEGDQLRYYYADWYQQKPGQAPILVIYGKNNRPSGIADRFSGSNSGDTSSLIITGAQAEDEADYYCSSPDSSGFQVFFGAGTKLTVL | 2.92 / 4.51 / ND | 4 of 9 (3.69)
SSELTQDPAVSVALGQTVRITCEGDSARIYYANWYQQKPGQAPILVIYGKNNRPSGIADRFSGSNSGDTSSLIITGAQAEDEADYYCSSRDSSGFQVFFGAGTKLTVL | 2.03 / 1.88 / 1.81 | 4 of 9 (3.91)
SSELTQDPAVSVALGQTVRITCEGDCLRYYGANWYQQKPGQAPILVIYGKNNRPSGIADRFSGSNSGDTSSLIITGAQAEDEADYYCSSRDSSGFQVCFGAGTKLTVL | 2.83 / 2.66 / 2.88 | 4 of 9 (4.14)
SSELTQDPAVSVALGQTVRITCEGDSLRYYDANWYQQKPGQAPILVIYHKNNSPSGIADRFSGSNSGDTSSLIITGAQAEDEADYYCSSRDSSGFQVFFGAGTKLTVL | 3.43 / 3.89 / 3.00 | 5 of 9 (4.31)
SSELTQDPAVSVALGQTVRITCEGDSLRYYYANWYQQKPGQAPILVIYGKNNRPSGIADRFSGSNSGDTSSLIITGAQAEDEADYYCSSRFISLFQVFFGAGTKLTVL | 2.78 / 2.76 / 2.72 | 2 of 9 (3.49)
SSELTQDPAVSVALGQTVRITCECDSLRYCYANWYQQKPGQAPILVIYGKNNRPSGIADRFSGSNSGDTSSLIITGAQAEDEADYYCSSTDSSGFQVFFGAGTKLTVL | 5.45 / ND / ND | 0 of 9

The closing 3 entries, repeated:

VL | log10 Kd (nM) by replicate | empty controls
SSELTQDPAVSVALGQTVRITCEGDSLRYYDANWYQQKPGQAPILVIYHKNNSPSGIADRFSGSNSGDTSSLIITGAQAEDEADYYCSSRDSSGFQVFFGAGTKLTVL | 3.43 / 3.89 / 3.00 | 5 of 9 (4.31)
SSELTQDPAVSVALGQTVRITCEGDSLRYYYANWYQQKPGQAPILVIYGKNNRPSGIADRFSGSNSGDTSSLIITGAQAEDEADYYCSSRFISLFQVFFGAGTKLTVL | 2.78 / 2.76 / 2.72 | 2 of 9 (3.49)
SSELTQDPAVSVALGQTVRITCECDSLRYCYANWYQQKPGQAPILVIYGKNNRPSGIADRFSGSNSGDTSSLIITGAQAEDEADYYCSSTDSSGFQVFFGAGTKLTVL | 5.45 / ND / ND | 0 of 9